# This is a selection; strong and weak results do not stand in their true shares. Some structures show a salt or complex split into parts, the way the source records it. Calls of active or inactive are those of the source. Calls follow the shape of the dose curve; as a rule, active = well fitted inhibition curve with a large enough effect; inconclusive = small, poorly fitted or top-dose-only effect, or effect the other way; inactive = flat fitted curve, though single readings scatter.
# Amino acid sequences for entries named in this document (tags omitted).
# UniProt O00167, whole entry: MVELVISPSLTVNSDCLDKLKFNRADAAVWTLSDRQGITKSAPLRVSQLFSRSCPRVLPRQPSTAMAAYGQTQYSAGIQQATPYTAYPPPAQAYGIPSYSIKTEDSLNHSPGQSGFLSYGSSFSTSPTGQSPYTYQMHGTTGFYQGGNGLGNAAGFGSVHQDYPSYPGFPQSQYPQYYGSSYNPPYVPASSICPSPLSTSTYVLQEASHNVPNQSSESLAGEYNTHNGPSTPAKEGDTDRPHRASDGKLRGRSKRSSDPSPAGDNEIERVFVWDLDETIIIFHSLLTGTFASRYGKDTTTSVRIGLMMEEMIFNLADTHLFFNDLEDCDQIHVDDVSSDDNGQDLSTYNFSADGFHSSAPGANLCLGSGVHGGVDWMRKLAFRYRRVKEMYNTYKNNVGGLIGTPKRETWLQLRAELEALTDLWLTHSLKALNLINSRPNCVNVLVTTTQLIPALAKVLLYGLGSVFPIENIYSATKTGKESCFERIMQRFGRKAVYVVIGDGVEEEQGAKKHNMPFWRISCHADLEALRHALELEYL
# Biological target: Protein phosphatase EYA2 (Homo sapiens) (UniProt O00167)
# Test: qHTS Assay for Inhibitors of the Phosphatase Activity of Eya2
# Settings: recombinant Eya2, OMFP fluorescence dephosphorylation (OMFP is methylfluorescein phosphate); at 76.9 µM (top of the series)
# Text: The Eya family of proteins are essential co-activators of the Six1 transcription factor. Six1 is a developmental gene that is abnormally re-expressed in a large percentage of breast cancers. This over-expression plays a causal role in the initiation and metastatic development of breast cancers. The Eya family of proteins was also found to contain a unique HAD phosphatase domain with protein tyrosine phosphatase activity which can potentially play a role in Six1-mediated breast tumorigenesis. […] We have developed and optimized a 1536 well fluorescence-based HTS assay targeting the phosphatase activity of Eya2. Inhibitors found against Eya2 could serve as potential therapeutic tools to inhibit Six1-mediated breast tumorigenesis and to increase the efficiency of radiation and certain chemo therapy. These inhibitors could also be used as chemical probes to study the function of Eya2's phosphatase activity and its role in Six1-mediated breast tumorigenesis.
# The Eya2 enzyme was kindly provided by the laboratory of Dr. Rui Zhao. The 3-O-methyl-fluorescein phosphate (OMFP) substrate and all buffer reagents were purchased from Sigma Aldrich. qHTS Assay Setup: 1. Buffer- 50 mM HEPES pH 7.5, 50 mM NaCl, 5 uM MgCl2, 0.05% BSA, 1 mM DTT. 2. OMFP Stock- 10 mM solution prepared in 100% DMSO and stored in single use aliquots at -20C. Assay Procedure- 1. Dispense 1.5 ul per well of Eya2 at 0.2 uM in black medium binding 1536 well Greiner plate 2. Transfer 23 nl of compound and control compound (EGTA) to plate 3. Incubate at ambient for 10 minutes 4. Dispense 1.5 ul per well of OMFP at 50 uM 5. Incubate at ambient for 10 minutes 6. Read on ViewLux using Excitation = 485 nm, Emission = 525 nm
# % is scaled to controls: 0 for no effect and ±100 for the full control effect.
row,Structure (SMILES),"activity, negative = inhibition"
1,O=C(NCC1(N2CCCCC2)CCCCC1)c1ccco1,inactive: 14.8%
2,CN(C)c1ccc(C(=O)NCC2(N3CCCCC3)CCCCC2)cc1,inactive: -29.6%
3,CCN1CCC(Nc2cccc(F)c2)CC1,inactive: -5.59%
4,Cc1ccc(C(=O)NCC2(N3CCCCC3)CCCCC2)o1,inactive: 6.06%
5,Fc1ccccc1NC1CCN(Cc2ccccc2)CC1,inactive: -1.09%
6,COc1cc(OC)cc(C(=O)NCC2(N3CCCCC3)CCCCC2)c1,inactive: -7.7%
7,CN1CCC(Nc2ccc(Cl)cc2)CC1,inactive: -1.86%
8,CCCOc1ccc(C)cc1CN(CCCl)CCCl,inactive: -13.1%
9,COc1cccc(C(=O)N(c2cc(C)cc(C)c2)C2CCN(C(=O)OC(C)(C)C)CC2)c1,inactive: -21.3%
10,COc1cc(OC)cc(C(=O)NCC2(N3CCOCC3)CCCCC2)c1,inactive: 6.37%
11,CCC(CO)(C(=O)OC1CN2CCC1CC2)c1ccccc1 (centres undefined),inactive: 6.61%
12,CC(C)(C)OC(=O)N1CCC(Nc2ccccc2)CC1,inactive: 1.7%
13,O=C(O)C1(Nc2ccccc2)CCN(Cc2ccccc2)CC1,inactive: 22.6%
14,CCCOc1ccc(C(=O)NCC2(N(C)C)CCCCC2)cc1,inactive: 5.34%
15,CCOc1ncccc1C(=O)NCC1(N2CCOCC2)CCCCC1,inactive: -0.872%
16,CN1CCC(Nc2ccc(F)c(Cl)c2)CC1,inactive: -3.9%
17,O=C(OC1CN2CCC1CC2)C1c2ccccc2C=Cc2ccccc21 (centres undefined),inactive: 2.97%
18,CCc1cc(C(=O)NCC2(N3CCCCC3)CCCCC2)sc1C,inactive: -5.9%
19,O=C(O)c1cccc(Nc2c([N+](=O)[O-])cc([N+](=O)[O-])cc2[N+](=O)[O-])c1,inactive: -26.2%
20,CCOC(=O)N1CCC(Nc2ccc(C)cc2)CC1,inactive: -7.2%
21,N/C(=N\O)c1c(N)no[n+]1[O-],inactive: 2.62%
22,COc1ccc(C(=O)NCC2(N3CCOCC3)CCCCC2)cc1OC,inactive: 8.32%
23,COc1cc(C(=O)NCC2(N3CCOCC3)CCCCC2)cc(OC)c1C,inactive: 1.71%
24,O=C(NCC1(N2CCOCC2)CCCCC1)c1cc(Br)ccc1Cl,inactive: -21.6%
25,CN(C)C1(CNC(=O)c2cccc(C#N)c2)CCCCC1,inactive: 3.9%

row,Structure (SMILES),"activity, negative = inhibition"
1,c1ccc(CN2CCC(Nc3ccccc3)CC2)cc1,inactive: 18.9%
2,CCCN1CCC(Nc2cc(OC)cc(OC)c2)CC1,inactive: -4.33%
3,CCOC(=O)C(CC)C1=NC(C)(C)Cc2ccccc21.O=[N+]([O-])c1cc([N+](=O)[O-])c(O)c([N+](=O)[O-])c1 (centres undefined),inactive: -18.4%
4,N#Cc1ccc(C(=O)NCC2(N3CCCCC3)CCCCC2)cc1,inactive: -4.97%
5,CC(C)(C)OC(=O)N1CCC(N(C(=O)c2ccccc2)c2ccc(Cl)cc2)CC1,inactive: -5.5%
6,O=C(NCC1(N2CCOCC2)CCCCC1)c1cc(=O)[nH]c2ccccc12,inactive: 3.21%
7,COc1cc(C(=O)NCC2(N3CCCCC3)CCCCC2)ccc1OC(F)F,inactive: 7.25%
8,COc1ccc(NC2CCN(C(=O)OC(C)(C)C)CC2)cc1,inactive: 9.83%
9,CC(C)c1ccc(C(=O)NCC2(N3CCOCC3)CCCCC2)cc1,inactive: 13.6%
10,CN1CCN(CCOC(=O)C(O)(c2ccccc2)c2ccccc2)CC1,inactive: 3.75%
11,O=[N+]([O-])c1cc([N+](=O)[O-])c(NCC2CCS(=O)(=O)C2)c([N+](=O)[O-])c1 (centres undefined),inactive: 6.53%
12,O=C(NCC1(N2CCCCC2)CCCCC1)c1cccc(C(F)(F)F)c1,inactive: 1.18%
13,CCN1CCC(Nc2ccc(Cl)cc2)CC1,inactive: -3.84%
14,N#CC1(Nc2ccccc2)CCN(CCc2ccccc2)CC1,inactive: -1.98%
15,CSc1ccc(C(=O)NCC2(N3CCOCC3)CCCCC2)cc1,inactive: 17.6%
16,O=C(NCC1(N2CCCCC2)CCCCC1)c1cccc([N+](=O)[O-])c1,inactive: 1.33%
17,O=C(NCC1(N2CCCCC2)CCCCC1)c1ccc(OC(F)F)cc1,inactive: 0.566%
18,CCCOc1ccc(C(=O)NCC2(N(C)C)CCCCC2)cc1OC,inactive: -1.21%
19,O=C(OC1CN2CCC1CC2)c1ccc([N+](=O)[O-])cc1 (centres undefined),inactive: -6.92%
20,O=C(NCC1(N2CCCCC2)CCCCC1)c1cncc(Br)c1,inactive: -5.1%
21,COc1ccc2c(c1O)-c1c(O)c(OC)cc3c1[C@H](C2)[N+](C)(C)CC3.O=[N+]([O-])c1cc([N+](=O)[O-])c([O-])c([N+](=O)[O-])c1[O-],inactive: 2.33%
22,COc1cc(OC)c(C(=O)NCC2(N(C)C)CCCCC2)cc1OC,inactive: 16%
23,O=C(NCC1(N2CCOCC2)CCCCC1)c1cc(F)c(F)cc1Cl,inactive: -19.2%
24,CC(C)c1ccc(NC2CCN(C(=O)OC(C)(C)C)CC2)cc1,inactive: -13.8%
25,COc1ccc(CN(CCCl)CCCl)cc1Cl,inactive: 2.44%

row,Structure (SMILES),"activity, negative = inhibition"
1,CN(C)c1cccc(C(=O)NCC2(N3CCCCC3)CCCCC2)c1,inactive: -1.52%
2,O=[N+]([O-])c1cc([N+](=O)[O-])c(OC2CCCCC2O)c([N+](=O)[O-])c1 (centres undefined),inactive: 11.1%
3,O=C(OC1CN2CCC1CC2)C1c2ccccc2Oc2ccccc21 (centres undefined),inactive: -20.5%
4,N#CC1(Nc2ccccc2)CCN(Cc2ccccc2)CC1,inactive: 0.386%
5,O=C(NCC1(N2CCCCC2)CCCCC1)c1ccc(Cl)s1,inactive: 8.52%
6,COc1ccc(Cl)cc1C(=O)NCC1(N2CCOCC2)CCCCC1,inactive: -8.9%
7,CCOC(=O)N1CCC(Nc2ccc(OC)cc2)CC1,inactive: 7.99%
8,O=C(NCC1(N2CCCCC2)CCCCC1)c1ccc(Cl)nc1,inactive: -29.5%
9,Cc1cc(C)cc(N(C(=O)c2ccccc2)C2CCN(C(=O)OC(C)(C)C)CC2)c1,inactive: -11.6%
10,O=C(NCC1(N2CCOCC2)CCCCC1)c1cc2ccccc2o1,inactive: -8.92%
11,CSc1ccccc1C(=O)NCC1(N2CCCCC2)CCCCC1,inactive: 14.7%
12,COc1ccc(C(=O)NCC2(N3CCCCC3)CCCCC2)cc1,inactive: -3.96%
13,COc1ccc(C(=O)NCC2(N3CCCCC3)CCCCC2)c(OC)c1OC,inactive: -2.43%
14,CC(C)(C)OC(=O)N1CCC(N(C(=O)c2ccccc2)c2ccc(F)cc2)CC1,inactive: -11.6%
15,O=C(NCC1(N2CCCCC2)CCCCC1)c1ccc(=O)[nH]c1,inactive: 3.52%
16,O=C(NCC1(N2CCCCC2)CCCCC1)c1cccs1,inactive: 32.1%
17,COc1cc(C(=O)NCC2(N(C)C)CCCCC2)ccc1OC(F)F,inactive: -19.3%
18,CCOC(=O)N1CCC(Nc2cccc(C)c2)CC1,inactive: -1.02%
19,Cc1ccc(OCC(C)C)c(CN(CCCl)CCCl)c1,inactive: 11%
20,O=C(NCC1(N2CCCCC2)CCCCC1)c1ccc(F)cc1,inactive: 4.61%
21,CCCCOc1ccc(C(=O)NCC2(N3CCOCC3)CCCCC2)cc1,inactive: 16.8%
22,CCOC(=O)N1CCC(Nc2ccc(F)cc2)CC1,inactive: 5.45%
23,COc1ccc(NC2CCN(CCc3ccccc3)CC2)c(OC)c1,inactive: -0.729%
24,CCOc1ccc(C)cc1CN(CCCl)CCCl,inactive: 1.22%

# Reference: PubChem BioAssay AID488837 (National Center for Advancing Translational Sciences (NCATS), 2010)
